The list shows a part of the results, in another mix than the full data. Active and inactive are the calls of the source.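 How the source made its calls: active means mean inhibition across duplicate retests at 20 µM reaching about 50% (limit read from the data); inactive means the rest, inconclusive results apart.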

The chains behind the UniProt entries cited, without tags or fusion partners.
UniProt Q01196, whole entry, looked up: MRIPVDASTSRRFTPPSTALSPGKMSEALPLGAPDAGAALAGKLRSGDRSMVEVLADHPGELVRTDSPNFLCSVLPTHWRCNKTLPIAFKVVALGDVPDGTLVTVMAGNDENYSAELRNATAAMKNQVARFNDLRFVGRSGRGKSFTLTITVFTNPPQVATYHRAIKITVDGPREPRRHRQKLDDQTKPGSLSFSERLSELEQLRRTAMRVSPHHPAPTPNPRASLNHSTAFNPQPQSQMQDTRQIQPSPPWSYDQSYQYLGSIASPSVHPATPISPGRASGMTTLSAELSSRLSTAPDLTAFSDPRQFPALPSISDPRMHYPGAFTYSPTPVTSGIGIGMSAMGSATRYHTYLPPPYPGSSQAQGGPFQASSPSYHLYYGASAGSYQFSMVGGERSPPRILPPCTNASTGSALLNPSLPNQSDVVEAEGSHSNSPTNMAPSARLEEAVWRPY
UniProt Q13951, whole entry, looked up: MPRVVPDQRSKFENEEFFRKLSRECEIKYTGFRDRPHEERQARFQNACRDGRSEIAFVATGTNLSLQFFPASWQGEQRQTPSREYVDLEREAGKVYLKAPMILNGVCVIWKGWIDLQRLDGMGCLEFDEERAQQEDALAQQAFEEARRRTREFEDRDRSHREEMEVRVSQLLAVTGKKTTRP

Here are results for 69 compounds from PubChem BioAssay AID1434 (Sanford-Burnham Center for Chemical Genomics, 2008).

The target of the test is Runt-related transcription factor 1 (Homo sapiens) + Core-binding factor subunit beta (Homo sapiens) (UniProt Q01196+Q13951). The test can be described thus: inhibitors of RUNX1 Runt–CBFb-SMMHC binding, primary screen, biochemical, FRET, Cerulean-Runt, Venus-CBFb-SMMHC, uHTS (AID 1434).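 Further: 0% = DMSO wells and 100% = wells with excess untagged CBFb-SMMHC; inhibitors lower the FRET ratio by blocking Runt binding to CBFb-SMMHC.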 The conditions noted are these: Cerulean-Runt/Venus-CBFb-SMMHC FRET ratio 530/480, 1 h; at 20 µM; stronger effect = higher value.
Broadly, the inhibition is the drop in the measured response relative to a control, in per cent. As to `CCC(C)N(CC(C)C)C(=S)SC(NC(C)=O)C(Cl)(Cl)Cl` (centres undefined), the inhibition is inactive: 3.7%.
For `CCOC(=O)c1ccc(NC(=O)C(C)(CCl)SC)cc1` (centres undefined) the value was inactive: 0.4%; for `O=C(COc1ccccc1)OC1CN2CCC1CC2` (centres undefined), inactive: -3.1%; for `COP1(=S)c2c(C)nn(CCC#N)c2N=C(c2ccc(F)cc2)N1C` (centres undefined), inactive: -7.7%.
For `O=[N+]([O-])c1ccc(Nc2ccc(Oc3ccc([N+](=O)[O-])cc3[N+](=O)[O-])cc2)c([N+](=O)[O-])c1` the value was inactive: -1.4%; for `O=P(Nc1ccccn1)(c1cccc2ccccc12)c1cccc2ccccc12`, inactive: -1.3%; for `Cc1cc(SC(NC=O)C(Cl)(Cl)Cl)ncn1` (centres undefined), inactive: 43%.
For `CCOC(=O)Nc1cccc([As](=O)(O)O)c1` the value was inactive: -0.7%; for `Cc1cc(SC(NC(=O)c2ccccc2)C(Cl)(Cl)Cl)nc(C(C)C)n1` (centres undefined), inactive: 20.8%.
Consider `CCOC(=O)Nc1ccc([As](=O)(O)O)c(O)c1`, for which the inhibition was inactive: 2.8%.
For `O=[N+]([O-])c1cc([N+](=O)[O-])c(-c2ccn[nH]2)s1` the value was inactive: 7.1%; for `CCN(CC)C(=S)SC(NC=O)C(Cl)(Cl)Cl` (centres undefined), inactive: 15.1%.
With `CC(C)NC(=O)NP(=O)(Oc1ccccc1)Oc1ccccc1`, the inhibition was inactive: -1.2%.
For `CC(C)c1ccc(OP(=O)(Nc2ccccn2)Oc2ccccc2F)cc1` (centres undefined) the value was inactive: -2.1%; for `ClCCSc1nnc(-c2cccnc2)o1`, inactive: -4.1%; for `Cc1ccc2nc3c(c(C)c2c1)CC(C(Cl)Cl)S3` (centres undefined), inactive: 2.1%.
For `Cc1ccc(OP(=O)(Nc2ccc([N+](=O)[O-])cn2)Oc2ccc(C)cc2)cc1` the value was inactive: 2.3%.
With `O=[As](O)(c1ccc(O)cc1)c1ccccc1O`, the inhibition is inactive: 2.1%.
For `C[As](=O)(O)c1cccc(C(=O)O)c1` the value was inactive: -5.3%.
For `COc1ccc(N/C(=N/P(=O)(N2CCOCC2)N2CCOCC2)N2CCOCC2)cc1` the value was inactive: 8.1%; for `COc1cc(I)ccc1[As](=O)(O)O`, inactive: 0.5%.
For `COc1ccc2nc(NP(=O)(c3ccccc3)c3ccccc3)sc2c1` the value was inactive: 2.3%; for `Cc1cc(=O)[nH]c(N[N+](=O)[O-])n1`, inactive: -3.6%.
With `O=C(OC1CN2CCC1CC2)C12CC3CC(CC(C3)C1)C2` (centres undefined), the inhibition was inactive: -5.3%.
For `Cc1c2c(nc3ccccc13)SC(C(Cl)Cl)C2` (centres undefined) the value was inactive: 3%.
`CCOP(=O)(Nc1cccc2ccccc12)OCC`: the inhibition is inactive: 0.8%.
For `COc1cc(C2NCCC3(OCCO3)C2(C)C)cc(OC)c1OC` (centres undefined) the value was inactive: 2.4%; for `CCCOP(=S)(Nc1nc(N)cc(=O)[nH]1)OCCC`, inactive: 0.4%.
For `Cc1ccc(NCCc2c([N+](=O)[O-])cc([N+](=O)[O-])cc2[N+](=O)[O-])cc1` the value was inactive: -5.1%.
Turning to `Nc1cccc2c([As](=O)(O)O)cccc12`, the inhibition is inactive: -19.2%.
For `O=[As](O)(c1cccc(O)c1)c1cccc(O)c1` the value was inactive: -1.7%; for `Cc1cccc(OCC(=O)OC2CN3CCC2CC3)c1` (centres undefined), inactive: 1%; for `COc1cc(C(=O)NCC2(N3CCOCC3)CCCCC2)cc(Cl)c1OC(C)C`, inactive: -0.6%.
On to `O=[As](O)(O)c1cccnc1`, for which the inhibition was inactive: 1.4%.
For `O=C(OC1CN2CCC1CC2)c1ccc(Cl)cc1` (centres undefined) the value was inactive: -3.1%.
For `O=[N+]([O-])c1ccc2c(c1)nnn2O` the value was inactive: -2.2%.
Regarding `CN(C(=O)Cc1ccccc1)[C@@H]1CC[C@]2(CCCO2)C[C@H]1N1CCCC1`, the inhibition was inactive: 0%.
For `CCOP1(=S)c2c(C)nn(CCC#N)c2N=C(c2ccc(F)cc2)N1C` (centres undefined) the value was inactive: -5%.
For `NC(=O)Nc1ccc([As](=O)(O)O)cc1` the value was inactive: 0.7%; for `Nc1ccccc1[As](=O)(O)c1ccccc1`, inactive: -0.6%; for `O=C(O)COc1ccc([As](=O)(O)O)cc1[N+](=O)[O-]`, inactive: -2.6%.
For `CS(=O)(=O)c1cc([N+](=O)[O-])c2no[n+]([O-])c2c1` the value was inactive: -86.8%; for `O=P(Nc1nccs1)(c1ccccc1)c1nc2ccccc2s1` (centres undefined), active: 64.7%.
`O=P(Nc1nccs1)(Oc1ccccc1)Oc1ccccc1`: the inhibition is inactive: -5.8%.
For `CCOP1(=S)c2c(C)nn(CCC#N)c2N=C(c2ccccc2F)N1C` (centres undefined) the value was inactive: 1.4%; for `O=P1(Nc2ccc(Br)cn2)COc2ccccc2OC1`, inactive: -2.6%.
For `Cc1ccc(OCC(=O)OC2CN3CCC2CC3)cc1` (centres undefined) the value was inactive: 3.7%; for `O=[As](O)(c1cccs1)c1cccs1`, inactive: -3%.
For `Nc1cccc([As](=O)(O)c2ccccc2)c1` the value was inactive: -2%; for `O=P1(Nc2ncccn2)COc2ccccc2OC1`, inactive: -1.8%; for `O=C(/C=C/c1ccccc1)OC1CN2CCC1CC2` (centres undefined), inactive: 0.6%.
`CN(C)C1(CNC(=O)c2ccc(S(C)(=O)=O)cc2)CCCCC1`: the inhibition was inactive: -2.7%.
For `CC1CCC(C(C)C)C(OP(=O)(Nc2ccccn2)c2ccccc2)C1` (centres undefined), the inhibition is inactive: -0.6%.
For `Cc1nn(-c2ccccc2)c2c1P(=O)(N1CCOCC1)N(C)C(c1ccccc1)=N2` (centres undefined) the value was inactive: 1.9%.
In the case of `O=[As](O)(c1ccccc1Br)c1ccccc1Br`, the inhibition is inactive: -2.3%.
For `CC(C)/C=N\N=C(\N)N[N+](=O)[O-]` the value was inactive: -2.5%; for `CN(C(=O)Cc1ccc(Cl)c(Cl)c1)[C@@H]1CCCC[C@H]1N1CCCC1`, inactive: -0.4%.
For `CC(C)(C)C(=O)NC(Sc1ncccn1)C(Cl)(Cl)Cl` (centres undefined) the value was inactive: -2.8%; for `Clc1n[nH]nc1-c1nn[nH][15n]1`, inactive: -2.9%.
For `CCOP(=O)(Nc1ccc(C)cn1)OCC` the value was inactive: 1.9%; for `O=P1(Nc2ccccn2)COc2ccccc2OC1`, inactive: 16.8%.
`c1nnnn1CCn1cnnn1`: the inhibition was inactive: 1.4%.
For `CC(C)C(=O)NC(Sc1ccccc1)C(Cl)(Cl)Cl` (centres undefined) the value was inactive: 1.8%.
For `O=P(Nc1nccs1)(c1ccccc1)c1ccccc1` the value was inactive: 1.9%.
For `Nc1ccc([As](=O)(O)c2ccc([N+](=O)[O-])cc2)cc1` the value was inactive: -2.1%.
Regarding `C(Cc1nn[nH]n1)Cc1nn[nH]n1`, the inhibition is inactive: -3.2%.
For `O=C(OC1CN2CCC1CC2)c1cccc(Cl)c1` (centres undefined) the value was inactive: 1.5%; for `CC(=O)NC(SC(=S)N(C)C)C(Cl)(Cl)Cl` (centres undefined), inactive: -1%; for `O=[N+]([O-])c1ncn(CCn2cnc([N+](=O)[O-])n2)n1`, inactive: -0.5%.
